## Yeast mating assay B: variants of the scFv Ab-14

Reference: Li et al. 2023, doi:10.1038/s41467-023-39022-2. File: FLAb, binding data.

All variants were tested on one target, the spike HR2 peptide PDVDLGDISGINAS (SARS-CoV-2).

The variants keep the light chain, the linker and the frameworks of Ab-14 (scFv order VH, the linker GGGGSGGGGSGGGGS, VL).
VH: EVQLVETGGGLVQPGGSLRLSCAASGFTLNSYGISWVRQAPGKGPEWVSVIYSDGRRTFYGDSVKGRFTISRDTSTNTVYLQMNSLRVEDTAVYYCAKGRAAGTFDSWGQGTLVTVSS
VL: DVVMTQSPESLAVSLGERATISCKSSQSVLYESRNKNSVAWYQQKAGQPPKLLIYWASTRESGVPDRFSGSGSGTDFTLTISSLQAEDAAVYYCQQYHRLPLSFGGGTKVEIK

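The parent was found by panning a naive human phage display library on the peptide. These sequences belong to a second round, designed from the earlier measurements on random variants of the parent. Their group label is 14H_GP_Gen (GP: Gaussian process model; Gen: genetic algorithm; a sequence that several methods proposed may carry one label only). Affinity was read by AlphaSeq, a pooled yeast mating assay with surface-displayed partners. Mating (16 h, 30 °C) was followed by selection of diploids and sequencing of their barcodes. A regression on co-assayed BCL2-family reference pairs converts the normalised counts of each replicate to an apparent Kd. There are six technical replicates.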

Variants are written as CDR1, CDR2 and CDR3 of the heavy chain (limits as in the source). Parent: GFTLNSYGIS, VIYSDGRRTFYGDSVK, GRAAGTFDS.
The read-out is the apparent dissociation constant on a log10 scale (nM): the lower, the stronger.
"n.d." means that the variant was in the library but no mating with the target was seen in that replicate; the authors take this as a sign of poor binding, and no number exists.
A sequence measured in both rounds can read differently, since the two assays cover different ranges.
Nonspecific signal, from three strains lacking the peptide, appeared in 1% of pairings of all heavy chain designs, centred on 2.08 (5% of these signals below 0.84); values are not corrected for it. For each scFv, signals with the empty controls are counted beside the result, with their mean in brackets.
In the paper, a design with two or fewer of six values counts as a poor binder.
The parent sequence was in this pool as ten entries: three were never detected, three once, and four in most replicates, with averages from 0.34 to 2.37.

CDR-H1,CDR-H2,CDR-H3,log10 Kd (nM) by replicate,control signals
GFNLNSYGIS,VIYSDGRRTFYGDRVK,GRQAGTFDS,n.d. 0.67 n.d. 0.93 2.18 0.82,0 of 18
GFNLNSYGIS,VIYSDGRRTFYTDSVK,GRQAGTFDS,1.41 0.63 0.90 0.56 0.10 0.94,0 of 18
GFSLNSYGIS,VIYSDGRRTFYGDSVK,GWTAGTFDW,0.52 0.20 0.79 0.80 0.71 0.29,0 of 18
GFDLNSYGIS,VIYSDGKRTFYGDSVK,GRWAGTFDS,0.52 0.09 0.17 -0.07 -0.11 0.12,1 of 18 (1.74)
GFQLNEYGIS,VIYSDGRRTFYGDQVK,GRNAGTFDS,n.d. n.d. n.d. n.d. n.d. n.d.,0 of 18
GFDLNSYGIS,VIYSDGRRTFYGDPVK,GQTAGTFDS,1.90 1.26 3.02 1.19 2.14 2.61,0 of 18
GFSLNEYGIS,VIYSDGRRTFYGDHVK,GRTAGTFDS,0.61 0.22 -0.53 0.81 0.51 n.d.,0 of 18
GFDLNSYGIS,VIYSDGTRTFYGDSVK,GRQAGTFDS,1.19 1.92 1.05 0.87 0.89 1.41,0 of 18
GFDLNSYGIS,VIYSDGRRTFYEDSVK,GRQAGTFDS,0.18 0.42 0.75 0.38 0.58 0.33,1 of 18 (2.49)
GFNLNSYGIS,VIYSDGRRTFYADPVK,GRTAGTFDS,0.56 0.24 0.72 0.75 0.75 0.89,0 of 18
GFSLNSYGIS,VIYADGRRTFYGDSVK,GRAAGTFDA,0.01 -0.13 -0.01 -0.09 0.69 -0.26,0 of 18
GFDLNSYGIS,VIYSDGWRTFYGDSVK,GRTAGTFDS,1.18 1.16 0.84 0.34 0.84 1.54,0 of 18
GFNLNSYGIS,VIYSDGRRTFYVDSVK,GRTAGTFDT,0.95 0.51 -0.02 -0.17 0.24 0.60,0 of 18
GFDLNSYGIS,VIYSDGRRTFYGDNVK,GRTAGTFDS,0.54 0.46 0.46 0.30 0.26 0.52,0 of 18
GFSLNEYGIS,VIYSDGRRTFYGDSVK,GRTAGTFCS,n.d. 3.12 3.19 1.57 3.12 3.11,0 of 18
GFSLNSYGIS,VIYSDGRRTFYSDSVK,GQAAGTFDD,0.67 0.84 0.45 0.24 0.46 0.84,0 of 18
GFELNDYGIS,VIYSDGRRTFYKDSVK,GRTAGTFDS,0.57 0.09 -0.15 -0.04 -0.33 0.21,0 of 18
YFDLNSYGIS,VIYSDGRRTFYADSVK,GRTAGTFDS,0.50 0.56 -0.04 0.04 0.10 0.27,1 of 18 (2.83)
GFNLNSYGIS,VIYSDGRRTFYGDDVK,GKTAGTFDS,0.28 -0.01 -0.04 -0.11 0.14 0.18,0 of 18
GFKLNSYGIS,VIYSDGRRTFYIDSVK,GRTAGTFDS,n.d. n.d. n.d. n.d. n.d. n.d.,0 of 18
GFELNSYGIS,VIYSDGRRTFYQDSVK,GKTAGTFDS,0.84 0.18 0.75 0.41 0.24 0.74,0 of 18
GFDLNSYGIS,VIYSDGRRTFYADSVK,GNAAGTFDD,n.d. -0.22 n.d. n.d. n.d. n.d.,0 of 18
GFSLNSYGIS,VIYSDGKRTFYGDKVK,GRTAGTFDS,n.d. n.d. n.d. n.d. n.d. n.d.,0 of 18
GFELNSYGIS,VIYADGRRTFYGDSVK,GEAAGTFDK,-0.16 -0.62 -0.25 -0.45 -0.36 -0.19,0 of 18
GFDLNSYGIS,VIYSDGRRTFYVDSVK,GQEAGTFDS,0.11 -0.30 -0.24 -0.58 0.13 -0.04,0 of 18
GFSLNMYGIS,VIYSDGRRTFYGDSVK,GREAGTFDS,0.23 0.34 0.31 -0.82 -0.44 -0.09,0 of 18
GFDLNSYGIS,VIYSDGRRTFYQDDVK,GKAAGTFDS,0.35 0.41 0.29 0.01 0.33 0.60,2 of 18 (2.63)
GFQLNEYGIS,VIYSDGRRTMYGDSVK,GRTAGTFDS,0.59 0.09 0.19 0.12 0.17 0.21,0 of 18
GFQLNMYGIS,VIYSDGRRTFYGDSVK,GRTAGTFDS,1.12 2.22 1.22 1.31 2.02 1.61,0 of 18
GFDLNSYGIS,VIYSDGRRTFYGDQVK,GRTAGTFDD,0.72 0.79 0.14 0.56 0.38 0.66,0 of 18
GFNLNSYGIS,VIYSDGRRTFYIDSVK,GKEAGTFDS,0.75 0.35 0.29 0.47 0.49 0.64,0 of 18
GFHLNSYGIS,VIYSDGRRTFYQDSVK,GQTAGTFDS,0.55 0.51 0.78 0.39 1.46 0.63,0 of 18
GFDLNSYGIS,VIYSDGRRTFYGDSVK,GRQAGTFDG,1.07 0.65 n.d. 1.15 0.10 0.51,0 of 18
GFELNEYGIS,VIYSDGRRTFYGDSVK,GHAAGTFDK,0.81 0.13 0.17 -0.35 -0.18 -0.05,0 of 18
GFELNSYGIS,VIYSDGRRTFYGDSVK,GITAGTFDS,0.69 0.27 0.38 0.04 0.36 0.13,1 of 18 (3.45)
GFWLNEYGIS,VIYSDGRRTWYGDSVK,GRTAGTFDS,1.32 1.32 0.85 0.82 1.01 1.70,0 of 18
GFDLNEYGIS,VIYSDGRRTMYGDSVK,GRTAGTFDS,-0.28 -0.41 -1.36 -0.12 -0.36 -0.87,0 of 18
GFDLNSYGIS,VIYSDGRRTFYGDSVK,GRLAGTFDT,-0.04 0.26 0.26 0.58 0.60 0.22,1 of 18 (0.93)
KFQLNSYGIS,VIYSDGRRTFYADSVK,GRQAGTFDS,n.d. n.d. n.d. n.d. n.d. n.d.,0 of 18

Extract of 2 entries:

| CDR-H1 | CDR-H2 | CDR-H3 | log10 Kd (nM) by replicate | control signals |
|---|---|---|---|---|
| GFKLNSYGIS | VIYSDGRRTFYIDSVK | GRTAGTFDS | n.d. n.d. n.d. n.d. n.d. n.d. | 0 of 18 |
| GFDLNSYGIS | VIYSDGRRTFYGDNVK | GRTAGTFDS | 0.54 0.46 0.46 0.30 0.26 0.52 | 0 of 18 |